HCMV NEC inh: inhibitors of HCMV UL50-UL53 interaction, biochemical, HTRF. HCMV UL50-UL53 nuclear egress complex (human cytomegalovirus). normalized percent inhibition. inhibition, % (concentration not given with the values). hit rate 0.15% among 190,000; in the data active means inhibition above about 27%, passing the limit was not always enough
GIV-Gai inh: inhibitors of GIV peptide binding to Galpha-i3, primary screen, biochemical, fluorescence polarization, FITC-GIV GBA peptide, rat Galphai3 | 90 min; hits give low values; scaled: aluminum fluoride 0%, vehicle 100% | percent of control (FP), % (concentration not given with the values) | 210,000 compounds, 0.42% hits | AID 1224905, 2016;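 active = replicate mean at 85% of control or lower, very high polarization wells dropped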;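 also: wells of about 15 µL received 100 nL stock; the first replicate is given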
Hits are given with their value; - = inactive; . = no result. Compounds with a hit are over-represented: about 0.43% of the library has one in this group of screens.

SMILES | HCMV NEC inh | GIV-Gai inh
Cc1cccc(Nc2cc(NCc3ccccc3)c3noc4c3c2C(=O)c2ccccc2-4)c1 | . | -
CCOc1ccc(NC(=O)c2sc3nc(N)c(C#N)c(-c4ccc(OC)c(OC)c4)c3c2N)cc1 | - | -
C=CCn1c(=O)c2ccc(C(=O)NCc3ccc4c(c3)OCO4)cc2n(CC(=O)Nc2cc(C)[nH]n2)c1=O | - | -
COCC(=O)Nc1cc(Sc2ccccc2)ccc1N=C(NC(C)=O)NC(C)=O | - | .
Cc1cc(C)n(-c2nc3cc(Cl)ccc3nc2Nc2ccc3c(c2)n(C)c(=O)n3C)n1 | - | 3.9
Cc1cc(C)n(-c2nc3cc(Cl)ccc3nc2Nc2ccc(C)c(F)c2)n1 | - | -
CC(C)C(=O)N1CCC(CNC(=O)c2ccno2)CC1 | - | .
S=C(NCc1ccc2c(c1)OCO2)N1CCN(c2ccccn2)CC1 | - | .
C=CCN1C(=O)NC(=O)/C(=C/c2ccc(OCc3ccccc3F)c(OCC)c2)C1=O | - | -
O=C(Cn1cc(/C=C2\C(=O)NC(=O)N(Cc3ccccc3)C2=O)c2ccccc21)NCc1ccco1 | - | -34.6
C=CCN1C(=O)NC(=O)/C(=C/c2ccc(OCc3ccc(Cl)cc3)c(OC)c2)C1=O | - | -
CN1C(=O)/C(=C/c2cn(Cc3ccccc3)c3ccccc23)c2ccccc21 | . | -
C=CCN1C(=O)NC(=O)/C(=C/c2cccc(OCc3ccccc3Cl)c2)C1=O | 72.9 | -
CN1C(=O)/C(=C/c2cn(CC(=O)NCc3ccco3)c3ccccc23)C(=O)NC1=S | - | -
C=CCN1C(=O)NC(=O)/C(=C\c2cn(Cc3ccccc3)c3ccccc23)C1=O | . | 21.4
C=CCN1C(=O)NC(=O)/C(=C/c2ccccc2OCc2ccc(Cl)cc2)C1=O | 82.3 | -
Cc1ccc(Cn2cc3c(n2)-c2c(oc(C(=O)Nc4cc(C)ccc4C)c2C)CC3)cc1 | - | -
COc1ccc(COC(=O)C2=C(C)NC3=C(C(=O)CC(C)(C)C3)C2c2coc3ccc(C)cc3c2=O)cc1 (stereo not drawn) | . | -
Cc1cc2c(cc1C(N)=O)OCCCO2 | . | -
O=S(=O)(c1cccc2nsnc12)N1CCN=C1N1CCN(c2ccc(F)cc2)CC1 | - | -
CCc1nnc2c(NCCCN3CCN(c4ccccc4)CC3)nc3ccccc3n12 | - | -
COC(=O)c1ccc(-n2c(C)cc3ccccc32)s1 | - | -
Cc1cc2ccccc2n1-c1ccc(C(=O)NC2CCCC2)s1 | 56.4 | -
CC(C)CNC(=O)C1CCN(c2ccc(-c3ccccc3)nn2)CC1 | - | -
CCCCCCCNC(=O)C1CCN(c2ccc(-c3ccccc3)nn2)CC1 | 31.0 | -
SMILES | HCMV NEC inh | GIV-Gai inh
Cc1nc(-c2csc(S(=O)(=O)NCc3ccc(Cl)cc3)c2)sc1C | . | -
O=S(=O)(/N=C1\C=C2N(CCO)CCOC2(O)c2ccccc21)c1ccccc1 (stereo not drawn) | . | -
O=S(=O)(/N=C1\C=C2N(CCO)CCOC2(O)c2ccccc21)c1ccc(F)cc1 (stereo not drawn) | 39.7 | -
CCC1(CC)Cc2ccccc2C(c2cc3ccccc3oc2=O)=N1 | . | -
COc1ccc(C2=CC(c3cccc(OC)c3)n3ncc(C(=O)Nc4ccc(C)cc4)c3N2)cc1 (stereo not drawn) | - | -
COc1ccc(C2C=C(c3ccc(C)cc3)Nc3c(C(=O)Nc4ccccc4)cnn32)cc1 (stereo not drawn) | . | -66.7
O=C(/C=C/c1ccc2c(c1)OCO2)NC1=NCCS1 | - | .
Cc1ccc(Cn2c(SCc3cccc(C)c3)nc3cccnc32)cc1 | 22.2 | -
Cc1cccc(CSc2nc3cccnc3n2Cc2ccccc2F)c1 | - | -
COc1ccc(-c2ccc(Nc3ccc(S(N)(=O)=O)cc3)nn2)cc1S(=O)(=O)N1CCCC1 | . | -
CC(=O)OCc1cc(C2C(C#N)=C(N)OC(N)=C2C#N)c(C)cc1C | . | -1.1
CCOC(=O)C1=C(C)OC(N)=C(C#N)C1c1ccccc1C (stereo not drawn) | . | -
CCCC(=O)Nc1nc2ccc(S(C)(=O)=O)cc2s1 | - | -
CCc1ccc(NC(=O)CN(C)S(=O)(=O)c2cccc3cccnc23)cc1 | - | -
CCN(CC)c1ccc(/C=C2\SC(=S)N(c3c(C)n(C)n(-c4ccccc4)c3=O)C2=O)cc1 | . | 26.5
CCN(CC)c1ccc(N2C(=O)/C(=C/c3ccccc3)SC2=S)cc1 | - | .
CCCCN1C(=O)/C(=C/c2c(N3CCN(CCO)CC3)nc3ccccn3c2=O)SC1=S | . | -
CC1CCN(c2nc3ccccn3c(=O)c2/C=C2/SC(=S)N(C3CCCCC3)C2=O)CC1 | . | -
C=CCN1C(=O)/C(=C\c2cccs2)SC1=S | - | .
C=CCN1C(=O)/C(=C/c2c(N3CCCCC3)nc3ccccn3c2=O)SC1=S | . | -36.2
Cc1cccn2c(=O)c(/C=C3\SC(=S)N(CCc4ccccc4)C3=O)c(N3CCCC3)nc12 | - | -
C=CCN1C(=O)/C(=C/c2c(Sc3ccccc3)nc3ccccn3c2=O)SC1=S | . | -36.2

Assay outcomes from PubChem BioAssay.
